Measured values: patent publication US10087225B2, “Formulation of MK2 inhibitor peptides” (MOERAE MATRIX, INC., priority 2015, dated 2018)

Protein sequences, listed by entry. Tags and fused reporters are not part of them. Lines headed by an entry give the natural chain unless they say otherwise; changes in a name come on top.
UniProt P49840: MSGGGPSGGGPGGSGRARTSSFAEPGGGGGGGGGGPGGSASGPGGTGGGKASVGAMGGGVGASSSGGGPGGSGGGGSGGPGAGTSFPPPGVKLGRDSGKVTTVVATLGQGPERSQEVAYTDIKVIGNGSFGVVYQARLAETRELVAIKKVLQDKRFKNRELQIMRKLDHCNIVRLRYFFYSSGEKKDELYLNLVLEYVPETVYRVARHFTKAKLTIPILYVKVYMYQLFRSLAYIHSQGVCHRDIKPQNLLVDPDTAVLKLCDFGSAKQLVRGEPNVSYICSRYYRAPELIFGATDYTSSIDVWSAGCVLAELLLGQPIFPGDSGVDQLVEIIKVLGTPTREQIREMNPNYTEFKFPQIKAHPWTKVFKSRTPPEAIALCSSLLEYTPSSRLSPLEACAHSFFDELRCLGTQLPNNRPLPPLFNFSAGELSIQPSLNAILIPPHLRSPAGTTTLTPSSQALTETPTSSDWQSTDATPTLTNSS
UniProt Q9Y5S2: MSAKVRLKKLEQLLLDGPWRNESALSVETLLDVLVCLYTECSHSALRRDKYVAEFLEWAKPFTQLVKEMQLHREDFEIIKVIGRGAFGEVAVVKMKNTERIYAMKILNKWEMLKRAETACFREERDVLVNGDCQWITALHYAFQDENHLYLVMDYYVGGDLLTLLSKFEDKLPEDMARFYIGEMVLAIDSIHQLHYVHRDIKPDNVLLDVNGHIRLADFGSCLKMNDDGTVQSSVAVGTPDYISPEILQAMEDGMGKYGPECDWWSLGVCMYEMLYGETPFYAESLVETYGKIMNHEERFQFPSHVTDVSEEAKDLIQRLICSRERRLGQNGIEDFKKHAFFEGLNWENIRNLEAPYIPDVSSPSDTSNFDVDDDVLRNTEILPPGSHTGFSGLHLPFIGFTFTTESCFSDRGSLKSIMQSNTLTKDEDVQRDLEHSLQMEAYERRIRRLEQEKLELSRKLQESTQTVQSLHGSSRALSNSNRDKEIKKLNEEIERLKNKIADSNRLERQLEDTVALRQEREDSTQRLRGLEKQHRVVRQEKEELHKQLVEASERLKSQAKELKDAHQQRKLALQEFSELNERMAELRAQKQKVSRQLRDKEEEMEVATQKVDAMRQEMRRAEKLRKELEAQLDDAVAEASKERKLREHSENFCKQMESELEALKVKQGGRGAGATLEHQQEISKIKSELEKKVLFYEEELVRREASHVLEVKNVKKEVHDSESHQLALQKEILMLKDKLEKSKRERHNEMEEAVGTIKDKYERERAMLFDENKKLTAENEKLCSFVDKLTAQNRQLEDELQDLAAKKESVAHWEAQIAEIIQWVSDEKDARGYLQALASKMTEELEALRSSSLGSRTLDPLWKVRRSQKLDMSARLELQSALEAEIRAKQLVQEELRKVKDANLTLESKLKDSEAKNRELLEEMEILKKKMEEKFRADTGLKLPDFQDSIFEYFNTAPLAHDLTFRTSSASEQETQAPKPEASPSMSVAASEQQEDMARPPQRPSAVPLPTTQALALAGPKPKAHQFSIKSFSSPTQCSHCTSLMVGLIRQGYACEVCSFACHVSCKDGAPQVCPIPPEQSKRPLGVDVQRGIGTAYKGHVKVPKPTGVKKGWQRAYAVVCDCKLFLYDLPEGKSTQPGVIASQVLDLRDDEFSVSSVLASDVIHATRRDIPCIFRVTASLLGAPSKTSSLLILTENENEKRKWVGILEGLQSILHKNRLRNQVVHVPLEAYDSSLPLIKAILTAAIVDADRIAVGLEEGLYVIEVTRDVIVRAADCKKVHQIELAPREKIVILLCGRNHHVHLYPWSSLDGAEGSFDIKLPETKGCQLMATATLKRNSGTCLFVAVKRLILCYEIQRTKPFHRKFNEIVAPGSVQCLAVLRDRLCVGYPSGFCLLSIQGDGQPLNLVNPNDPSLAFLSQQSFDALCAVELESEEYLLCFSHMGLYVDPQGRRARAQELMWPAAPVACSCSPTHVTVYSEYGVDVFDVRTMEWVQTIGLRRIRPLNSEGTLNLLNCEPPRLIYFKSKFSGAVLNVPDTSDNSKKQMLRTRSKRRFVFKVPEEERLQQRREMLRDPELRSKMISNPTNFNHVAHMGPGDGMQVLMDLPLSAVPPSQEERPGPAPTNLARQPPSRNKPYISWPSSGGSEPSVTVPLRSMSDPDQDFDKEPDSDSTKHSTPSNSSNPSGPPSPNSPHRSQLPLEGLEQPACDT
UniProt P53667: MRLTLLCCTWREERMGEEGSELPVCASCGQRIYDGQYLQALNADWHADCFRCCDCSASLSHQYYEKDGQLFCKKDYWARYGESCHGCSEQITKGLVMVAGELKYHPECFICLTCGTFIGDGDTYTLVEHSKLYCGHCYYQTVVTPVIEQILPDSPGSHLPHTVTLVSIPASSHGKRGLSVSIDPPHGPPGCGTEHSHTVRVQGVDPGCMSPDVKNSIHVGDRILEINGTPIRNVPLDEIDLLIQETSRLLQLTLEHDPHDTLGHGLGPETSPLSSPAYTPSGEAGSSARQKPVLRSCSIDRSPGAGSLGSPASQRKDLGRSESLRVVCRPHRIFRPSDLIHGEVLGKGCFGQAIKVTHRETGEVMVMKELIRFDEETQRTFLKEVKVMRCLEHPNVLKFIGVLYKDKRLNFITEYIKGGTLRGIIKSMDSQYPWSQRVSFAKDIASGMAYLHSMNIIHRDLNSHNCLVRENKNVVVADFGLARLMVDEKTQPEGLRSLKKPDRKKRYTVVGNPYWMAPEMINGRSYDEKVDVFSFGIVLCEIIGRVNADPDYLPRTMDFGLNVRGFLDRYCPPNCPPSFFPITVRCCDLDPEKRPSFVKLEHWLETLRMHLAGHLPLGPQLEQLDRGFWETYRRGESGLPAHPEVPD

Columns and labels:
Assay in all cases: Kinase Profiling Assay
Assay type in all cases: biochemical
Conditions in all cases: 100 μM
DDR2(h) = target: T1, DDR2(h) (Homo sapiens, UniProt Q16832)
T1 sequence (Q16832 22-855): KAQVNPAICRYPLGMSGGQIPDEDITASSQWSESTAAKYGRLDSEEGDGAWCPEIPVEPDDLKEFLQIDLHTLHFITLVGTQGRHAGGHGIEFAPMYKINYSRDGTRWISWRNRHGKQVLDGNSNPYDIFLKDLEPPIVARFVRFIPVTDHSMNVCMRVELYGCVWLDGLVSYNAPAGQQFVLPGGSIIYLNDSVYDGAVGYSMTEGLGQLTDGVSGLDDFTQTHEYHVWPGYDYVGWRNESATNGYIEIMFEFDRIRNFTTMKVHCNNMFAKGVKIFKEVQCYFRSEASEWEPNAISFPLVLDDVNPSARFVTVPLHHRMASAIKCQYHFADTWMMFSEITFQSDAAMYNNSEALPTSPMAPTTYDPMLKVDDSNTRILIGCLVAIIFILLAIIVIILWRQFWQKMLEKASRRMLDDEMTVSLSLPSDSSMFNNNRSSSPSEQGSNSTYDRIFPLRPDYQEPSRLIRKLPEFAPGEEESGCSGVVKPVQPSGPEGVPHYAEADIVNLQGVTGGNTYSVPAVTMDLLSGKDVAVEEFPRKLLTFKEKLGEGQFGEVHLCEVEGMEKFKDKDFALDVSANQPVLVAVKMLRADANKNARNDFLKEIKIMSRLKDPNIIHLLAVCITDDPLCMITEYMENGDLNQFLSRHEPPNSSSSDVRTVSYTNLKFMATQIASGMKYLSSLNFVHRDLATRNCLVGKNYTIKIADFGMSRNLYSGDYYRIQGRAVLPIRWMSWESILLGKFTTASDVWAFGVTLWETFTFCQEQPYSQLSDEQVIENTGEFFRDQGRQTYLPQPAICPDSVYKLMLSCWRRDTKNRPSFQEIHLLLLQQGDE

cKit(V560G)(h) = cKit(V560G)(h) (Homo sapiens, UniProt P10721, V560G)
Aurora-A(h) = target: T2, Aurora-A(h) (Homo sapiens, UniProt O14965)
T2 sequence (O14965 1-403): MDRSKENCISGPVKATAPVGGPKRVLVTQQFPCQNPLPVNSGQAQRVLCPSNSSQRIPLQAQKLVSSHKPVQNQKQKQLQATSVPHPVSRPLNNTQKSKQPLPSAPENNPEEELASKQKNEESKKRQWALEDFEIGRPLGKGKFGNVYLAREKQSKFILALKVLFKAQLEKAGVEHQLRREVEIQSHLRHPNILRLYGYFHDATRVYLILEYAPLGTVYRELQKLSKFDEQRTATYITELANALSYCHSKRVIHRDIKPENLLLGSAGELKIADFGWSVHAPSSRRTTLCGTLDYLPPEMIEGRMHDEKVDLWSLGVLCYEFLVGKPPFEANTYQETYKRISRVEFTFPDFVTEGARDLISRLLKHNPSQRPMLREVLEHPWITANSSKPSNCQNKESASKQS

MAPK2(h) = MAPK2(h) (Homo sapiens, UniProt P28482)
GSK3α(h) = GSK3α(h) (Homo sapiens, UniProt P49840)
Ab1(M351T)(h) = Ab1(M351T)(h) (Homo sapiens, UniProt P00519, M351T)
CDK2/cyclinA(h) = CDK2/cyclinA(h) (Homo sapiens, UniProt P24941)
JAK3(h) = target: T3, JAK3(h) (Homo sapiens, UniProt P52333)
T3 sequence (P52333 1-1124): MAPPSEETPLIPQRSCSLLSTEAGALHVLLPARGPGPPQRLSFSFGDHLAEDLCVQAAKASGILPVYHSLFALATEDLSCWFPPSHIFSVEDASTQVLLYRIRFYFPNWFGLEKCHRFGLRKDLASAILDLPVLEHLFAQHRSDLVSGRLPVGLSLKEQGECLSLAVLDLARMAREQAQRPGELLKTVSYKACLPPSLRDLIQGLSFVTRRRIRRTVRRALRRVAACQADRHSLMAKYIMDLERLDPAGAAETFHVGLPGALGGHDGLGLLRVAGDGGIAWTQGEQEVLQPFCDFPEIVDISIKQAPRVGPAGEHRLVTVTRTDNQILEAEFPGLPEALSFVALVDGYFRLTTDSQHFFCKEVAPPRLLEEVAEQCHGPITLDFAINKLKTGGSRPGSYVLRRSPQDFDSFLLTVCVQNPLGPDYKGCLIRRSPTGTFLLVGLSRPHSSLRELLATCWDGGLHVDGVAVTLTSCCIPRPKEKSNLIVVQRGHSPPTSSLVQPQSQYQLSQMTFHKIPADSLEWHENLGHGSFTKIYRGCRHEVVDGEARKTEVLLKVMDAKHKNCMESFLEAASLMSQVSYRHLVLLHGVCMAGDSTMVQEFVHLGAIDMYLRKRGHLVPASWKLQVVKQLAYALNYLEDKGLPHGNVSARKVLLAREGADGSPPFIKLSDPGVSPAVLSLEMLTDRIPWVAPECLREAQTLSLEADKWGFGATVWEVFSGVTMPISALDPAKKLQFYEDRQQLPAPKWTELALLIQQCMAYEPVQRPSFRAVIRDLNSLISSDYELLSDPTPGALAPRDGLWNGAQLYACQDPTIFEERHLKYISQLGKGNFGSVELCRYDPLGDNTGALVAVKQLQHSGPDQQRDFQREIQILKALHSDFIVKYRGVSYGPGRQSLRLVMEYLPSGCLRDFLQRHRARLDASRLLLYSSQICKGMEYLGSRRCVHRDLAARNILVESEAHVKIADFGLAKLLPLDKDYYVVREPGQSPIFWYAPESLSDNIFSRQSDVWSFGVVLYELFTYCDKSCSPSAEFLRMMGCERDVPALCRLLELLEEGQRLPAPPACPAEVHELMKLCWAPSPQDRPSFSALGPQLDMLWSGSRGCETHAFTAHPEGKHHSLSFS

MRCKβ(h) = MRCKβ(h) (Homo sapiens, UniProt Q9Y5S2)
LIMK1(h) = LIMK1(h) (Homo sapiens, UniProt P53667)
Ab1(H396P)(h) = Ab1(H396P)(h) (Homo sapiens, UniProt P00519, H396P)
eEF-2K(h) = eEF-2K(h) (Homo sapiens, UniProt O00418)

With “YARAAARQARAKALNRQLGVA (Mammalian) [MMI-0200]” the “% activity” value (DDR2(h)) was 104%, the “% activity” value (cKit(V560G)(h)) was 115% and the “% activity” value (Aurora-A(h)) was 107%. For the same sequence, the “% activity” value (MAPK2(h)) was 105%, the “% activity” value (GSK3α(h)) was 119% and the “% activity” value (Ab1(M351T)(h)) was 119%. For the same sequence, the “% activity” value (CDK2/cyclinA(h)) was 114%, the “% activity” value (JAK3(h)) was 117% and the “% activity” value (MRCKβ(h)) was 102%. The “% activity” value (LIMK1(h)) was 109%, the “% activity” value (Ab1(H396P)(h)) was 121% and the “% activity” value (eEF-2K(h)) was 136%.
